Patent publication US20250082765A1, “MOLECULES AS ANTICANCER AGENTS FOR TARGETED TREATMENT OF BREAST AND PROSTATE CANCER” (priority 2021, published 2025)
Where two headings read alike, the source gives them in different places.

Assays:
[1] = female mice, 229.91 mg IV bolus, average of 6 mice
[2] = male mice, 227 mg IV bolus, average of 6 mice

With “capacitabine-citric acid-estradiol [citric acid-capecitabine-estradiol]” the “average biodistribution of capecitabine in breast tissue” value ([1]; 0.5 hours) was 16.1 ng/mL, the “average biodistribution of capecitabine in breast tissue” value ([1]; 1 hour) was 17.21 ng/mL and the “average biodistribution of capecitabine in breast tissue” value ([1]; 2 hours) was 17.49 ng/mL.

With “capecitabine-citric acid-dihydrotestosterone” the “average biodistribution of capecitabine in prostate gland” value ([2]; 0.5 hours) was 13.6 ng/mL, the “average biodistribution of capecitabine in prostate gland” value ([2]; 1 hour) was 16.33 ng/mL and the “average biodistribution of capecitabine in prostate gland” value ([2]; 2 hours) was 17.9 ng/mL.
